For this assay, the system named is MCF7. The assay can be described thus: Estrogenic activity in human MCF7 cells assessed as stimulation of cell proliferation relative to 2ME2. Type of assay: functional.

Calls of active or inactive are those of the source. The rule behind the calls is not given here.

Turning to `COc1cc2c(cc1C(=O)O)CC[C@@H]1[C@@H]2CC[C@]2(C)[C@@H](O)CC[C@@H]12`, the “fold change (FC)” value is “inactive”.

The values above are taken from ChEMBL document CHEMBL1154314, “Synthesis and antitumor activities of 3-modified 2-methoxyestradiol analogs” (Bioorg Med Chem Lett, 2009).
